# Assay outcomes deposited in PubChem BioAssay by National Center for Advancing Translational Sciences (NCATS).
# Only some compounds are listed: those with a hit (about 3.7% of all), similar ones and a draw of the others.
# Nrf2 ARE act: Nrf2 pathway activation. AREc32 ARE-luciferase reporter (MCF7-derived line), luminescence, 24 h. Potency, µM (series often up to 46.1 µM), without a hit: top-dose activation, usual class: activators. hit rate 0.31% among 410,000. AID 624171; also: potency is read from the fitted curve at half-maximal effect; % of control where 0% means no effect; nearly all actives have a fitted effect of over 65% in size
#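 AREc32_Fluc, 1000 cells/well, OPTI-MEM + 5% FBS, o/n 37 deg C 5% CO2; 23 nL cpd by pin tool, 24 hr; Steady-Glo 30 min RT, luminescence.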
# ClpP mod: qHTS Assay for Activators of ClpP; hit rate 1.9% among 340,000; Potency, µM (titrated, usually from 57.5 µM), for the others: at the top dose activity change, negative = active; AID 651965, 2013; purified B. subtilis ClpP, FRET peptide cleavage, 20 min; ATP-dependent Clp protease proteolytic subunit (Bacillus subtilis (strain 168)), P80244; active = well fitted falling curve with a large enough effect; inconclusive = small, poorly fitted or top-dose-only effect; inactive = no such curve, though single readings can be large or run the other way; also: potency is read from the fitted curve at half-maximal effect; the source files actives as falling curves though it sought activators and does not explain the sign; nearly all actives have a fitted effect of over 65% in size
#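 ClpP 10 microg/mL final, pH 8 Tris/KCl buffer with BSA, glycerol, Tween-20; compound pinned in; FRET-FV substrate; RT 20 min; Ex320/Em430; ΔFRET vs ADEP 5.8 microM, DMSO, no enzyme.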
# Nrf2 inh: inhibitors of Nrf2 signaling | A549 ARE-Fluc reporter, luciferase luminescence, 18-24 h | AID 504444 | hit rate 2.1% among 360,000 | Potency, µM (series often up to 46 µM), inactives show top-dose activity change, negative = inhibition, hits mostly inhibitors; also: potency is read from the fitted curve at half-maximal effect; % is scaled to controls: 0 for no effect and ±100 for the full control effect; nearly all actives have a fitted effect of over 60% in size
#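 Quantitative HTS in A549 cells stably bearing an antioxidant response element-firefly luciferase construct. Inhibition of Nrf2-driven transcription was scored by luminescence after 18-24 h of compound exposure at 37 °C.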
# A549 viability: kills or reduces viability of A549 cells in Nrf2 counter-screen; A549 ARE-Fluc cells, CellTiter-Fluor viability, 18-24 h; Potency, µM (titrated, usually from 46 µM), inactives show at the top dose activity change, negative = cytotoxicity, hits mostly inhibitors; hit rate 0.16% among 390,000; AID 504648; also: potency is read from the fitted curve at half-maximal effect; % is scaled to controls: 0 for no effect and ±100 for the full control effect
#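 A549 ARE_Fluc cells in 5% FBS OPTI-MEM were exposed to compounds in concentration-response for 18-24 h at 37 deg C. Viability was read by CellTiter-Fluor fluorescence (Ex 405/Em 525) after 30 min, before the luciferase read.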
# miR-21 reporter: miR-21 reporter, rising signal; HeLa miR-21 FLuc reporter, luciferase, 48 h; Potency, µM (doses to about 38.3 µM), for inactives: at the highest dose reporter change, positive = more light; 340,000 tested, under 10 active; AID 2288; active = well fitted rising curve with a large enough effect; inconclusive = small, poorly fitted or top-dose-only effect; inactive = no such curve, though single readings can be large or run the other way;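 further: % of control where 0% means no effect; miR-21 action dims this reporter so a rising signal means less miR-21 action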
#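 HeLa cells endogenously expressing miR-21, stably carrying CMV-driven firefly luciferase with a downstream miR-21 binding site, 2000 cells/well. Titrations up to approximately 40 uM, 48 hours; luciferase luminescence read.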
# IL2 activator: IL-2 activation; IL-2 activation reporter assay, cell-based qHTS; stimulated with anti-CD3/CD4/CD28 beads; in transgenic mouse T cells; activation, % (series mostly up to about 46 µM); hit rate 0.065% among 360,000; in the data active = activation above about 50%; inconclusive = mostly about 30% to 49%; also: 0% is about no effect
#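 Unstimulated transgenic mouse T cells, 750 per well, received compound and, after 60 minutes, anti-CD3/anti-CD4 bead plus anti-CD28 stimulation. EGFP and DsRed were quantified after 18 hours.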
# * = called active by the depositor; ? = inconclusive; nt = no result; [ ] = remark or other dose. Unless noted, calls follow the shape of the dose curve; as a rule, active = well fitted curve in the direction sought with a large enough effect; inconclusive = small, poorly fitted or top-dose-only effect, or another doubt; inactive = no such curve, though single readings can be large; an effect the other way counts as inactive or inconclusive.
SMILES,Nrf2 ARE act,ClpP mod,Nrf2 inh,A549 viability,miR-21 reporter,IL2 activator
COC(=O)C1=CN(C(C)C)C=C(C(=O)OC)C1c1cccc(OC)c1,2%,31%,-26%,?,-1%,1
Cc1cccc(C(=O)Nc2cccc(C(=O)OCc3cc(=O)n4c5c(sc4n3)CCCC5)c2)c1,6%,0%,nt,0%,-49%,nt
O=C(C[n+]1cccc(Br)c1)c1ccc(I)cc1,nt,0%,nt,nt,nt,nt
COc1cc2nc(Cl)nc(NC3CCN(Cc4ccccc4)CC3)c2cc1OC,nt,0%,nt,nt,nt,nt
CCOC(=O)[C@H]1[C@H]2COc3ccc(Br)cc3[C@H]2N2C(=O)CN(Cc3ccc(Cl)cc3)C(=O)[C@@]12C,5%,-8%,26µM*,-12%,nt,-1
N#CN1CCC(NS(=O)(=O)c2cccc(C(F)(F)F)c2)CC1,nt,nt,-19%,1%,nt,nt
O=C(CSc1nncn2c1cc1sccc12)Nc1ccccc1C(F)(F)F,2%,-3%,21µM*,13%,-7%,nt
COc1ccccc1NC(=O)CSc1nncn2c1cc1sccc12,12%,4%,-26%,2%,-1%,nt
Cc1cccc(C)c1NC(=O)CCS(=O)(=O)c1ccc2c(c1)CC(C)N2C(=O)C1CC1 (centres undefined),3%,-3%,-6%,10%,-1%,nt
Cc1cccc(C(=O)N2N=C(c3ccc(NS(C)(=O)=O)cc3)CC2c2cccs2)c1 (centres undefined),3%,-4%,23µM*,-19%,5%,-4
CCS(=O)(=O)Nc1ccc(C2=NN(C(=O)c3ccccc3)C(c3cccs3)C2)cc1 (centres undefined),0%,-8%,?,-21%,15%,-1
COc1ccc(-c2noc(-c3cccnc3NCc3ccco3)n2)cc1,9%,4%,22%,-3%,-3%,nt
CCCCn1cc(S(=O)(=O)c2ccc(C)c(C)c2)c(=O)c2cc(F)c(N(CC)CC)cc21,-1%,-24%,26µM*,-26%,?,nt
CCN(CC)c1cc2c(cc1F)c(=O)c(S(=O)(=O)c1ccc(OC)cc1)cn2Cc1ccccc1,0%,32µM*,12%,13%,-1%,nt
CCN(CC)c1cc2c(cc1F)c(=O)c(S(=O)(=O)c1ccccc1)cn2Cc1ccccc1,0%,22µM*,?,4%,12%,nt
CCCn1cc(S(=O)(=O)c2ccc(C)c(C)c2)c(=O)c2cc(F)c(N3CCCCC3)cc21,0%,-11%,-21%,1%,1%,nt
CC(C)C[C@H](NC(=O)c1nc[nH]c1C(=O)NCC(=O)OC(C)(C)C)C(=O)OC(C)(C)C,5%,2%,?,-12%,15%,0
CC(C)C[C@H](NC(=O)c1nc[nH]c1C(=O)N[C@@H](CC(C)C)C(=O)OC(C)(C)C)C(=O)OC(C)(C)C,12%,-3%,26µM*,?,5%,-4
OC(CN1C=CCc2ccccc21)c1ccc(Cl)cc1Cl (centres undefined),nt,-15%,nt,nt,nt,nt
Cc1ccccc1C(=O)N/N=C/c1ccc([N+](=O)[O-])s1,-4%,0%,10µM*,-22%,?,-1
Cc1ccsc1/C=N/NC(=O)C(O)c1ccccc1 (centres undefined),0%,1%,1%,-3%,0%,-1
O=C(N/N=C/c1ccc([N+](=O)[O-])s1)C(O)c1ccccc1 (centres undefined),-1%,0%,5.2µM*,?,28%,2
O=C(N/N=C\c1ccc([N+](=O)[O-])s1)c1cncc(Br)c1,-1%,-1%,16µM*,23µM*,?,-4
Cn1c(SCC(=O)N/N=C/c2ccc([N+](=O)[O-])s2)nnc1-c1ccccc1,-1%,0%,21µM*,?,?,-6
C/C(=C1/C=Nc2ccccc21)c1ccc(N(C)C)cc1,nt,-13%,nt,nt,nt,nt
CCc1cccc(NC(=O)CCn2nc(C)cc2C)c1,-1%,-1%,9%,0%,-12%,nt
CC(=O)Nc1ccc(S(=O)(=O)N2CCN(S(=O)(=O)c3c(F)cccc3F)CC2)cc1,nt,nt,3%,8%,nt,nt
O=C(Cc1ccccc1)N/N=C/c1ccc([N+](=O)[O-])s1,0%,-2%,21µM*,?,20%,0
COC(=O)N/N=C/c1ccc([N+](=O)[O-])s1,21%,-2%,6.5µM*,10µM*,19%,0
Cc1ccc(-c2nnc(SCC(=O)N/N=C/c3ccc(C)s3)n2-c2ccc(C)cc2)cc1,0%[9.22 µM],-1%,21µM*,?,-11%,1
O=C(Cc1ccccc1)N/N=C/c1cccs1,3%,-1%,5%,0%,-17%,1
O=C(N/N=C/c1ccc([N+](=O)[O-])s1)c1ccccc1,-2%,nt,23µM*,?,28%,-1
Cc1cc(C(=O)N/N=C/c2ccc([N+](=O)[O-])s2)c2ccccc2n1,0%,-2%,?,?,7%,-4
CC(C)(C)OC(=O)Cc1nnc(-c2nc3ccccc3[nH]2)o1,nt,nt,?,-6%,nt,nt
Cc1ccnn1CC(=O)N/N=C/c1ccc([N+](=O)[O-])s1,1%,0%,26µM*,-22%,?,1
Cc1nnc(SCC(=O)N/N=C/c2cn(-c3ccccc3)nc2-c2ccccc2)n1-c1ccccc1,2%,-1%,16µM*,-29%,-19%,-1
COc1ccc(NC(C)C(=O)N/N=C/c2ccc([N+](=O)[O-])s2)cc1 (centres undefined),0%,nt,21µM*,?,?,0
Cc1ccnn1CC(=O)N/N=C/c1cccs1,-2%,-1%,2%,4%,-10%,0
Cc1ccc(-c2nnc(SCC(=O)N/N=C/c3ccccc3C(=O)O)n2-c2ccccc2)cc1,nt,nt,nt,nt,-7%,nt
Cc1ccc(NC(C)C(=O)N/N=C/c2ccc([N+](=O)[O-])s2)cc1 (centres undefined),0%,nt,?,?,26%,-1
COC(=O)C[C@H]1c2ccccc2S(=O)(=O)N1c1ccc(N(C)C)cc1,nt,-1%,nt,nt,nt,nt
Cc1ccc(Cn2cc(S(=O)(=O)c3cccc(Cl)c3)c(=O)c3cc(F)c(N4CCCCC4)cc32)cc1,0%,-4%,26%,-4%,0%,nt
NC1=NC(=O)/C(=C\c2ccc(-c3ccccc3[N+](=O)[O-])o2)S1,nt,-2%,nt,nt,nt,nt
Cc1ccc(-c2nc3sccn3c2Nc2ccccc2C)cc1,7%,0%,-4%,2%,1%,nt

# One compound at a time (already shown). Order of screens: Nrf2 ARE act | ClpP mod | Nrf2 inh | A549 viability | miR-21 reporter | IL2 activator
# Results for CC(C)(C)OC(=O)Cc1nnc(-c2nc3ccccc3[nH]2)o1 : nt | nt | ? | -6% | nt | nt
# Results for Cc1ccc(Cn2cc(S(=O)(=O)c3cccc(Cl)c3)c(=O)c3cc(F)c(N4CCCCC4)cc32)cc1 : 0% | -4% | 26% | -4% | 0% | nt
# Results for Cc1cc(C(=O)N/N=C/c2ccc([N+](=O)[O-])s2)c2ccccc2n1 : 0% | -2% | ? | ? | 7% | -4
# Results for Cc1nnc(SCC(=O)N/N=C/c2cn(-c3ccccc3)nc2-c2ccccc2)n1-c1ccccc1 : 2% | -1% | 16µM* | -29% | -19% | -1
# Results for O=C(Cc1ccccc1)N/N=C/c1cccs1 : 3% | -1% | 5% | 0% | -17% | 1
